Assay results: paper PMC9585939, “Unveiling a family of spiro-β-lactams with anti-HIV and antiplasmodial activity via phosphine-catalyzed [3+2] annulation of 6-alkylidene-penicillanates and allenoates” (Frontiers in Chemistry, 2022)

Legend:
[1] = test system: HIV-1 SG3.1; conditions: CC50 in TZM-bl cells
Text: (§1) The HIV-1 SG3.1 is a reference subtype B strain that uses the CXCR4 coreceptor. It was obtained by transfection of HEK293T cells with pSG3.1 plasmid using jetPRIME transfection reagent (Polyplus-transfection SA, Illkirch, France), according to the instructions of the manufacturer.
(§2) Briefly, TZM-bl cells were infected with 200 TCID50 of HIV-1 or HIV-2 in the presence of serial-fold dilutions of the compounds in the growth medium, supplemented with diethylaminoethyl-dextran (DEAE-dextran). After 48 h of infection, luciferase expression was quantified with Pierce Firefly Luc One-Step Glow Assay Kit (ThermoFisher Scientific, Rockford, United States), according to the instructions of the manufacturer. For each compound dilution, the assay was set up in triplicate wells. Virus controls, cell controls, and inhibitors controls (drugs with a known action against each virus) were employed.

[2] = test system: HIV-2 03PTHCC19; conditions: CC50 in TZM-bl cells
Text: as §1, §2

For `COc1ccc(COC(=O)C2=CCC3(C(=O)N4C(C(=O)OC(c5ccccc5)c5ccccc5)C(C)(C)SC43)C2C(=O)c2ccc(Br)cc2)cc1` (stereo not shown) [Compound 14g, (1’R,2’R)-Benzhydryl spiro[(2-(4-bromobenzoyl)-3-(4-methoxybenzyloxycarbonyl)cyclopent-3-ene)-1’,6-penicillanate]], the “Therapeutic index (CC50/IC50)” value [1] was 3353.33 and the “Therapeutic index (CC50/IC50)” value [2] was 1156.32.
With `COc1ccc(COC(=O)C2=CCC3(C(=O)N4C(C(=O)OC(c5ccccc5)c5ccccc5)C(C)(C)SC43)C2C(=O)c2ccc(F)cc2)cc1` (stereo not drawn) [Compound 14a, (1′R,2′R)-benzhydryl spiro[(2-(4-fluorobenzoyl)-3-(4-methoxybenzyloxycarbonyl)cyclopent-3-ene)-1′,6-penicillanate]] the “Therapeutic index (CC50/IC50)” value [1] was 6255.00 and the “Therapeutic index (CC50/IC50)” value [2] was 5773.85.
For `COc1ccc(COC(=O)C2=CCC3(C(=O)N4C(C(=O)OC(c5ccccc5)c5ccccc5)C(C)(C)SC43)C2C(=O)c2ccccc2)cc1` (stereo not shown) [Compound 9i, (1’R,2’R)-Benzhydryl spiro[(2-benzoyl-3-(4-methoxybenzyloxycarbonyl)cyclopent-3-ene)-1’,6-penicillanate]], the “Therapeutic index (CC50/IC50)” value [1] was 2385.33 and the “Therapeutic index (CC50/IC50)” value [2] was 322.34.
With `CC1(C)SC2N(C(=O)C23CC=C(C(=O)OCc2ccccc2)C3C(=O)c2ccc(F)cc2)C1C(=O)OC(c1ccccc1)c1ccccc1` (stereo not drawn) [Compound 12a, (1′R,2′R)-benzhydryl spiro[(2-(4-fluorobenzoyl)-3-benzyloxycarbonylcyclopent-3-ene)-1′,6-penicillanate]] the “Therapeutic index (CC50/IC50)” value [1] was 3060.00 and the “Therapeutic index (CC50/IC50)” value [2] was 5285.45.
With `CC1(C)SC2N(C(=O)C23CC=C(C(=O)OCc2ccccc2)C3C(=O)c2ccc(Br)cc2)C1C(=O)OC(c1ccccc1)c1ccccc1` (stereo not shown) [Compound 12c, (1’R,2’R)-Benzhydryl spiro[(2-(4-bromobenzoyl)-3-benzyloxycarbonylcyclopent-3-ene)-1’,6-penicillanate]] the “Therapeutic index (CC50/IC50)” value [1] was 1100.40 and the “Therapeutic index (CC50/IC50)” value [2] was 591.61.
With `CC1(C)SC2N(C(=O)C23CC=C(C(=O)OCC=Cc2ccccc2)C3C(=O)c2ccccc2)C1C(=O)OC(c1ccccc1)c1ccccc1` (stereo not shown) [Compound 9n, (1’R,2’R)-Benzhydryl spiro[(2-benzoyl-3-cinnamyloxycarbonylcyclopent-3-ene)-1’,6-penicillanate]] the “Therapeutic index (CC50/IC50)” value [1] was 3664.12 and the “Therapeutic index (CC50/IC50)” value [2] was 3893.13.
In the case of `COc1ccc(COC(=O)C2=CCC3(C(=O)N4C(C(=O)OC(c5ccccc5)c5ccccc5)C(C)(C)SC43)C2C(=O)c2ccc(Cl)cc2)cc1` (stereo not shown) [Compound 14d, (1’R,2’R)-Benzhydryl spiro[(2-(4-chlorobenzoyl)-3-(4-methoxybenzyloxycarbonyl)cyclopent-3-ene)-1’,6-penicillanate]], the “Therapeutic index (CC50/IC50)” value [1] was 8906.67 and the “Therapeutic index (CC50/IC50)” value [2] was 2055.38.
In the case of `CC1(C)SC2N(C(=O)C23CC=C(C(=O)OCC=Cc2ccccc2)C3C(=O)c2ccc(F)cc2)C1C(=O)OC(c1ccccc1)c1ccccc1` (stereo not shown) [Compound 14c, (1’R,2’R)-Benzhydryl spiro[(2-(4-fluorobenzoyl)-3-cinnamyloxycarbonylcyclopent-3-ene)-1’,6-penicillanate]], the “Therapeutic index (CC50/IC50)” value [1] was 5174.00 and the “Therapeutic index (CC50/IC50)” value [2] was 1990.00.
